Values of other authors in patent US20020032197A1 (priority 1998, published 2002).

System: serotonergic receptors
Conditions: in vitro

Structure (SMILES): O=C(NCCN1CCOCC1)c1ccc(Cl)cc1 [moclobemide, p-chloro-N-(2-morpholinoethyl)-benzamide]
- affinity for serotonergic receptors: no appreciable affinity
